Patent US6747049B2, “Oxazole derivatives” (Hoffmann-La Roche Inc., priority 2002, dated 2004)

Target: T1, PPARα (Homo sapiens, UniProt Q07869)
T1 construct: expressed in transfected cells; host or cells: BHK21 (ATCC CCL10)
T1 sequence (Q07869 167-468 limits assumed): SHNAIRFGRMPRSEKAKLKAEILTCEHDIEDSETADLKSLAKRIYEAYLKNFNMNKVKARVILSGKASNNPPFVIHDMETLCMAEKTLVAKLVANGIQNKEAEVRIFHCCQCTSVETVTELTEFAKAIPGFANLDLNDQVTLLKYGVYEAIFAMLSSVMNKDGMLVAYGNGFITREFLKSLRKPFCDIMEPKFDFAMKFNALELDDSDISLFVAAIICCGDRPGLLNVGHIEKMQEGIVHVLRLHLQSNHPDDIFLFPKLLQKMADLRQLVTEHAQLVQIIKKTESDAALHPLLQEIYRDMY
Assay: Luciferase transcriptional reporter gene assay, pFA-PPARα-LBD in BHK21 cells
Assay type: cell-based
Conditions: Gal4-PPARα-LBD luciferase reporter, 24 hours incubation
From the text: Full-length cDNA clones for human PPARα and mouse PPARγ were obtained by RT-PCR from human adipose and mouse liver cRNA, respectively, cloned into plasmid vectors and verified by DNA sequencing. […] To accomplish this, the portions of the cloned sequences encoding the LBDs were amplified from the full-length clones by PCR and then subcloned into the plasmid vectors. Final clones were verified by DNA sequence analysis.
Luciferase Transcriptional Reporter Gene Assays
Baby hamster kidney cells (BHK21 ATCC CCL10) were grown in DMEM medium containing 10% FBS at 37° C. in a 95%O2:5%CO2 atmosphere. […] Following incubation of the cells for 24 hours with substances, 50 ul of the supernatant was recovered and analyzed for SEAP activity (Roche Molecular Biochemicals). […] Luminescence for both SEAP and luciferase was measured in a Packard TopCount. Luciferase activity was normalized to the SEAP control and transcriptional activation in the presence of a test substance was expressed as fold-activation over cells incubated in the absence of the substance. EC50 values were calculated using the XLfit program (ID Business Solutions Ltd. UK).

With `CN(CCOc1ccc(CC2SC(=O)NC2=O)cc1)c1ccccn1` (stereo not shown) [Rosiglitazone, rosiglitazone, reference compound] the “PPARα EC50” value was “inactive”.
